According to US20120004285A1, “ERBB-3 (HER3)-SELECTIVE COMBINATION THERAPY” (ENZON PHARMACEUTICALS, INC., priority 2008, published 2012):

System: A431 cells
Assay: Cell proliferation assay (MTS), A431
Assay type: cell-based, human
Conditions: gefitinib alone, FIG. 6A
Procedure: Cells were routinely passaged 2-3 times weekly.
15PC-3 (Santaris Pharma): The human prostate cancer cell line 15PC-3 was cultured in DMEM (ATCC)+10% fetal bovine serum (FBS)+2 mM Glutamax™ I+gentamicin (25 μg/ml). A549 (ATCC): The human lung cancer cell line A549 was cultured in F12K Medium (ATCC)+10% FBS+2 mM Glutamax™ I+Penicillin (100 u/ml)/Streptomycin (100 μg/ml). DU145 (ATCC): The human prostate cancer cell line DU145 was cultured in Eagle's Minimum Essential Medium (ATCC)+10% FBS+2 mM Glutamax™ I+Penicillin (100 u/ml)/Streptomycin (100 μg/ml). A431 (ATCC): The human epidermoid cancer cell line A431 was cultured in DMEM (ATCC)+10% fetal bovine serum (FBS)+2 mM Glutamax™ I+Penicillin (100 u/ml)/Streptomycin (100 μg/ml). SKBR-3 (ATCC): The human breast cancer cell line SKBR3 was cultured in McCoy's 5A Medium. Modified (ATCC)+10% FBS+2 mM Glutamax™ I+Penicillin (100 u/ml)/Streptomycin (100 μg/ml).
Cells were seeded in 6-well plates (NUNC™) and treated when 50-60% confluent. The transfection of cells by ON180 was performed as described by the manufacturer using serum-free OptiMEM® (Gibco™) and 5 μg/ml Lipofectamine™-2000. ONCONT served as a negative control. The treated cells were incubated at 37° C. for 4 hours and then washed with OptiMEM®, after which regular serum-containing medium was added.

## COc1cc2ncnc(Nc3ccc(F)c(Cl)c3)c2cc1OCCCN1CCOCC1 [gefitinib, reference compound]
  sensitivity of cells to gefitinib: sensitive
